Target: recombinant RPA (RPA1, RPA2 and RPA3 co-purified) (UniProt P27694 1-616; P15927 1-270; P35244 1-121)
Assay: BLI

The chains behind the UniProt entries cited, without tags or fusion partners.
UniProt P27694, whole entry, chain 1 of 3: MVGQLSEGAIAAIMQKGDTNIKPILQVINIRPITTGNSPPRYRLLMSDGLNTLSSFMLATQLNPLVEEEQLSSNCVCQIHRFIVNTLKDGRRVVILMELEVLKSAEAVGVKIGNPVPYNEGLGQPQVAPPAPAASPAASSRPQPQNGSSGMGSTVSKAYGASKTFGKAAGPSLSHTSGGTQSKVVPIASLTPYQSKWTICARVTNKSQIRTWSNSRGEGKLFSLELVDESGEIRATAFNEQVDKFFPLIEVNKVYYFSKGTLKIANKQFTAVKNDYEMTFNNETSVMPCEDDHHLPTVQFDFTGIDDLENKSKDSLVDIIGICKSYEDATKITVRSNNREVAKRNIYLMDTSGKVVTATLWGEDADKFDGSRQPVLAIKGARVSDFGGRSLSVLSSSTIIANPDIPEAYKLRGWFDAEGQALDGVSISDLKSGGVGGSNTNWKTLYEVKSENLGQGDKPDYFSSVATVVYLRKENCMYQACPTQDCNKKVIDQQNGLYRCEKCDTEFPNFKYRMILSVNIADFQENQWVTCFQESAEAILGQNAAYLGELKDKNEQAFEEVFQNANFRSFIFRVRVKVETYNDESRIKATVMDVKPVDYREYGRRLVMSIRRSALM
recombinant RPA (RPA1, RPA2 and RPA3 co-purified), UniProt P15927, whole entry, chain 2 of 3: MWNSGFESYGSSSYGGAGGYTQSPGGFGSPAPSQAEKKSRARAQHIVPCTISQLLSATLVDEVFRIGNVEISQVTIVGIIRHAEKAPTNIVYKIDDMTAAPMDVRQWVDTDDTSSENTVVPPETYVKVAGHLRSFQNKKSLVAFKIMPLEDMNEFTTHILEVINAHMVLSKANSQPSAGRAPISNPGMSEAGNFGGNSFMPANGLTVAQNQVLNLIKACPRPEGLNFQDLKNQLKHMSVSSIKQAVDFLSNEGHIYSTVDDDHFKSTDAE
recombinant RPA (RPA1, RPA2 and RPA3 co-purified), UniProt P35244, whole entry, chain 3 of 3: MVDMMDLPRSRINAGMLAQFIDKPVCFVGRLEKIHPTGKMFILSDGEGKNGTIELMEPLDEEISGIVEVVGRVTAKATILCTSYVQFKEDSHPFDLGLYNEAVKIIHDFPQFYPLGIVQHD

- koff: 0.000519 s⁻¹
B1: His-tagged LAP2α (LAP2α/wt) (natural protein)
chain: MPEFLEDPSVLTKDKLKSELVANNVTLPAGEQRKDVYVQLYLQHLTARNRPPLPAGTNSKGPPDFSSDEEREPTPVLGSGAAAAGRSRAAVGRKATKKTDKPRQEDKDDLDVTELTNEDLLDQLVKYGVNPGPIVGTTRKLYEKKLLKLREQGTESRSSTPLPTISSSAENTRQNGSNDSDRYSDNEEGKKKEHKKVKSTRDIVPFSELGTTPSGGGFFQGISFPEISTRPPLGSTELQAAKKVHTSKGDLPREPLVATNLPGRGQLQKLASERNLFISCKSSHDRCLEKSSSSSSQPEHSAMLVSTAASPSLIKETTTGYYKDIVENICGREKSGIQPLCPERSHISDQSPLSSKRKALEESESSQLISPPLAQAIRDYVNSLLVQGGVGSLPGTSNSMPPLDVENIQKRIDQSKFQETEFLSPPRKVPRLSEKSVEERDSGSFVAFQNIPGSELMSSFAKTVVSHSLTTLGLEVAKQSQHDKIDASELSFPFHESILKVIEEEWQQVDRQLPSLACKYPVSSREATQILSVPKVDDEILGFISEATPLGGIQAASTESCNQQLDLALCRAYEAAASALQIATHTAFVAKAMQADISQAAQILSSDPSRTHQALGILSKTYDAASYICEAAFDEVKMAAHTMGNATVGRRYLWLKDCKINLASKNKLASTPFKGGTLFGGEVCKVIKKRGNKH
